Values quoted from earlier work in PMC3495162 (Journal of medicinal chemistry, 2012).

The chains behind the UniProt entries cited, without tags or fusion partners.
UniProt P10415, whole entry: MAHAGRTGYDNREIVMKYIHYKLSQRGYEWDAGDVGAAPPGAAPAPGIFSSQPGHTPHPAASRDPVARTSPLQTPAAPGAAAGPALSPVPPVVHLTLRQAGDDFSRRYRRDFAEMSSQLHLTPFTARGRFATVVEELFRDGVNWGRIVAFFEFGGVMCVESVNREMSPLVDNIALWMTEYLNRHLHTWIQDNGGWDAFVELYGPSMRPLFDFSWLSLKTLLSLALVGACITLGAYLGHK

Target: Bcl-2 (Homo sapiens, UniProt P10415)
Settings: read-out: Bcl-2 Ki; cited from earlier work

In the case of `CC1(C)CCC(c2ccc(Cl)cc2)=C(CN2CCN(c3ccc(C(=O)NS(=O)(=O)c4ccc(N[C@H](CCN5CCOCC5)CSc5ccccc5)c(S(=O)(=O)C(F)(F)F)c4)cc3)CC2)C1` [Compound 2], the Ki is listed as under 1 nM.
